## Yeast mating assay 1: variants of the scFv Ab-14

Source: Engelhart et al. 2022 (doi:10.1038/s41597-022-01779-4), MIT Lincoln Laboratory and A-Alpha Bio; data file from the FLAb repository.

Target: peptide PDVDLGDISGINAS, taken from heptad repeat 2 (HR2) of SARS-CoV-2 spike.

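The parent was found by panning a naive human phage display library on the peptide. The library (AAYL49) carries one to three amino acid substitutions per variant, with no insertions or deletions. The assay is AlphaSeq: two haploid yeast populations carry antibody and antigen on their surface. The frequency of each diploid, read from paired DNA barcodes, reflects how well the two displayed proteins bind. A regression on co-assayed BCL2-family reference pairs converts the normalised counts of each replicate to an apparent Kd. The assay was run in three technical replicates.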

The variants keep the light chain, the linker and the frameworks of Ab-14 (scFv order VH, the linker GGGGSGGGGSGGGGS, VL).
VH: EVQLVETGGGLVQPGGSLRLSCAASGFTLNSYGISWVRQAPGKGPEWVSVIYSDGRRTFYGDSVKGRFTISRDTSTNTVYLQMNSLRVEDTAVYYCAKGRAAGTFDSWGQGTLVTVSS
VL: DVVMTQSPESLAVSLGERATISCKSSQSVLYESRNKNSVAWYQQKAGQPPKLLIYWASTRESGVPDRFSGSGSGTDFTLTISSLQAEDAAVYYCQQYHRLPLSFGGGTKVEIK

Each variant is given by its three heavy chain CDRs, as the data file delimits them; those of the parent are GFTLNSYGIS, VIYSDGRRTFYGDSVK, GRAAGTFDS. Values are log10 of the apparent Kd in nM; lower means stronger binding. Replicates are averaged; those with no signal do not enter the mean. "nd" marks a missing value. The strain was present, yet no cells mated with the target were sequenced in that replicate, which points to weak or no binding. Nonspecific signal, from three strains lacking the peptide, appeared in 15% of pairings of library AAYL49, centred on 4.06 (5% of these signals below 2.83); values are not corrected for it. The control count says in how many pairings with the empty strains this scFv gave a signal. In this assay the parent's reference entry averaged 0.65; its copy inside this library read 4.11 (one replicate of three).

With GFTLNSYSIS, VIYSDGRRTFYGDSVC, GRAAGTFDG the result was 3.03, nd, nd (controls 3 of 9).
With GFTLNSYGIS, KIYSDGRRRFYGDSNK, GRAAGTFDS the result was nd, nd, 3.99 (controls 4 of 9).
With GFTHNSYGIS, VIYSDGRRTFDGDSVK, GRMAGTFDS the result was nd, nd, nd (controls 1 of 9).
With GFTLNSYGIS, VIYSDGRRTFYGDSVK, TRAAGTFDS the result was 0.89, 1.30, 1.04 (mean 1.08; controls 1 of 9).
With GFTLNSYGIS, VIYSDGRRTNYQDSVK, GEAAGTFDS the result was 0.85, 1.05, 1.02 (mean 0.98; controls 2 of 9).
With GFTLNSYGGS, VIYSDGRRTFYGDSVL, GRAAGTFDE the result was 3.92, nd, 3.66 (mean 3.79; controls 1 of 9).
With GLTLNSYGIS, VIYSDGRRTFLGDSNK, GRAAGTFDS the result was nd, nd, 3.73 (controls 1 of 9).
With GFTLNSYGIS, VIYSDGRATTYGDSVK, GRAAGTFDR the result was nd, nd, nd (controls 2 of 9).
With GFMLNSYGIS, RIYSDGRRTFYGDSVK, GRMAGTFDS the result was nd, nd, 4.71 (controls 2 of 9).
With HFTLNSYGIS, VIYSDGRRTSYGDSVK, GRAAMTFDS the result was nd, nd, nd (controls 1 of 9).
With AFTLNSYGIS, VIYSDGRRTFYGDSVK, GRAAGTFDS the result was 2.55, 3.66, 3.15 (mean 3.12; controls 3 of 9).
With GFTLNSYGIS, VIRSDGRCTFYGDSVK, GRAAGFFDS the result was nd, nd, nd (controls 0 of 9).
With GFTFNSYGIS, RIYSDGRRTFYGDSVK, GRAAGTFDT the result was nd, nd, nd (controls 3 of 9).
With GFGLNSYGIS, VWYSDGRRTFYGDSVK, GRAEGTFDS the result was nd, nd, nd (controls 2 of 9).
With GFTLNSYGIS, VIYSDGRRTFYGDSVK, GRRAGTFDS the result was nd, nd, nd (controls 0 of 9).
With GFLMNSYGIS, VIYSGGRRTFYGDSVK, GRAAGTFDS the result was nd, nd, nd (controls 0 of 9).
With GFTLNSYGIS, VIYSDGRETFYGDSVK, GRAAPTFDS the result was nd, nd, nd (controls 4 of 9).
With GFTLNSYGMS, VIYSDGRRTFYGDGVK, DRAAGTFDS the result was 4.76, 3.83, 3.63 (mean 4.07; controls 6 of 9).
With GFTLNSYGIS, DIYSDGRRTFYGDSVK, GRAWGTGDS the result was 4.57, 3.48, nd (mean 4.02; controls 2 of 9).
With GFTLNSGGIS, VFYSDGRRTFYGDSVK, GRAAGFFDS the result was nd, nd, nd (controls 0 of 9).
With GHTLNSYGIS, VIYSDGRRTMYGDSVK, GRAATTFDS the result was 4.43, nd, nd (controls 5 of 9).
With GFTLNSDGIS, VIYSDGRRTFYGDSVK, GRAAGTFDS the result was nd, 4.99, nd (controls 1 of 9).
With GFTLNSYGIS, VIYSDGRRTTYGDNVK, GGAAGTFDS the result was nd, nd, nd (controls 0 of 9).
With ILTLNSYGIS, VIYSLGRRTFYGDSVK, GRAAGTFDS the result was nd, 3.19, nd (controls 2 of 9).
With GFILNSYGIS, VIYSDGRRTFYGDSVS, GRAAGTRDS the result was 1.57, 1.81, 1.93 (mean 1.77; controls 1 of 9).
With GFTLNSYGIS, CIYSDGRRTFYGGSVK, GRIAGTFDS the result was 2.74, 3.00, 3.53 (mean 3.09; controls 8 of 9).
With GFTLNSYGIS, VIYSDGRRTFYGDSVK, GRANGTFDT the result was nd, nd, nd (controls 0 of 9).
With GFTLNSYGIS, VIYSDGRRKAYGDSVK, GRAASTFDS the result was 2.17, 2.39, 2.13 (mean 2.23; controls 3 of 9).
With GFTLNIYGIS, VIYSDGRRTFYGDSVK, GRAAGKADS the result was nd, nd, nd (controls 6 of 9).
With GFTLNSYGIS, VIYSDGRRTFYGDSVK, GMAAGTFDS the result was 0.98, 1.19, 1.21 (mean 1.13; controls 0 of 9).
With GFTLNSYGIS, VIYSDGRRAFYGDSVK, QRAAGLFDS the result was nd, nd, nd (controls 2 of 9).
With GFTLNSYGIS, VIYPDGRRTFYGMSVK, GEAAGTFDS the result was nd, nd, nd (controls 0 of 9).
With GDTLNSYGIS, VIYSDGRRTFYGVTVK, GRAAGTFDS the result was nd, nd, 4.08 (controls 0 of 9).
With GLTENSYGIS, VIYSDGRRTCYGDSVK, GRAAGTFDS the result was nd, 2.71, nd (controls 1 of 9).
With GFTLNSYGIS, VIYSDGRFTNYGDSVY, GRAAGTFDS the result was nd, nd, nd (controls 0 of 9).
With GFTLNSYGIS, EIYSDGRRTFYGDSVK, GRAAGTRDS the result was nd, nd, nd (controls 0 of 9).
With GFTLNSYGIS, VIYSDGRRTFSGDEKK, GRAAGTFDS the result was nd, nd, 2.37 (controls 0 of 9).
With GFTLNSYNIS, VIYSDGRRTRYGDSVK, GRAIGTFDS the result was nd, nd, 5.52 (controls 5 of 9).

The opening 5 entries, copied out:

{"CDR-H1": "GFTLNSYSIS", "CDR-H2": "VIYSDGRRTFYGDSVC", "CDR-H3": "GRAAGTFDG", "replicates, log10 nM": "3.03, nd, nd", "log10 Kd (nM), mean": "3.03", "signal with controls": "3 of 9"}
{"CDR-H1": "GFTLNSYGIS", "CDR-H2": "KIYSDGRRRFYGDSNK", "CDR-H3": "GRAAGTFDS", "replicates, log10 nM": "nd, nd, 3.99", "log10 Kd (nM), mean": "3.99", "signal with controls": "4 of 9"}
{"CDR-H1": "GFTHNSYGIS", "CDR-H2": "VIYSDGRRTFDGDSVK", "CDR-H3": "GRMAGTFDS", "replicates, log10 nM": "nd, nd, nd", "log10 Kd (nM), mean": "nd", "signal with controls": "1 of 9"}
{"CDR-H1": "GFTLNSYGIS", "CDR-H2": "VIYSDGRRTFYGDSVK", "CDR-H3": "TRAAGTFDS", "replicates, log10 nM": "0.89, 1.30, 1.04", "log10 Kd (nM), mean": "1.08", "signal with controls": "1 of 9"}
{"CDR-H1": "GFTLNSYGIS", "CDR-H2": "VIYSDGRRTNYQDSVK", "CDR-H3": "GEAAGTFDS", "replicates, log10 nM": "0.85, 1.05, 1.02", "log10 Kd (nM), mean": "0.98", "signal with controls": "2 of 9"}